Experimental findings from publication PMC11860776 (Viruses, 2025) are described below.

In this assay the target is GST-mIMPα2ΔIBB, mouse importin α2 devoid of the autoinhibitory IMPβ binding domain (residues 70-529) (mouse, UniProt P52293 70-529). As to the kind of experiment: AlphaScreen or HTRF. To be noted: both partners purified.

B1: Simian Virus (SV)40 Large Tumor Antigen (LTA) NLS wt peptide (peptide)
peptide: SQHSTPPKKKRKV
modifications: biotin at the N-terminus
notes: source: synthetic peptide, bought: Genscript
On to B1, for which the Kd (in general, the equilibrium constant for the complex coming apart) is about 5 nM.
